{
  "source": "patent US20120076781A1",
  "about": "“METHODS OF TREATING CANCERS WITH HER3 ANTISENSE OLIGONUCLEOTIDES” (ENZON PHARMACEUTICALS, INC., priority 2009, published 2012)",
  "test_system": "HER3 and P-HER3",
  "test": "Feedback upregulation of HER3 and P-HER3 by lapatinib in BT474, SKBR3 and MDA453 cells",
  "type": "cell-based, human",
  "details": "lapatinib 1 μM, trastuzumab 10 μg/ml, SEQ ID NO: 180 5 μM, 0-48 hours",
  "description": "The expression level of HER3, P-HER3 (Y1197) and P-HER3 (Y1289) is shown at 0, 1, 4, 24 and 48 hours as indicated for lapitinib-only treated cells (1), lapatinib plus trastuzumab-treated cells (2), lapitinib plus SEQ ID NO: 180-treated cells (3) and SEQ ID NO: 180-only treated cells (4). Lapatinib was used at a concentration of 1 μM, trastuzumab at a concentration of 10 μg/ml, and SEQ ID NO: 180 at a concentration of 5 μM.",
  "data": [
    {"substance": "trastuzumab [reference compound]", "values": [
      {"measurement": "prevention of feedback upregulation of HER3 and P-HER3 expression by lapatinib", "value": "not"}
    ]}
  ]
}
